Reference: patent US20200283532A1, “TUMOUR-TARGETING PEPTIDE VARIANTS” (Cancer Research Technology Limited, priority 2017, published 2020)
Like-named read-outs stand apart in the source and are kept apart here.

Legend:
A375Pβ6 cells = type: cell-based
Experimental: Cells were trypsinised and resuspended into DMEM (serum-free media) to prepare a cell suspension of 4×10^6 cells/ml. From this point on everything was kept on ice. 50 μl of cell suspension were aliquoted into each flow tube. Peptides were diluted in ice-cold serum-free media to 200 nM giving the final concentration of 100 nM when 50 μl was added to the cell samples. The peptides were left on ice for 15 minutes then washed twice with flow media and centrifuged for 3 minutes at 1200 rpm in between each wash step. Mouse anti-biotin (50 μl at 1:200) was added to each sample for 15 minutes, then wash steps were repeated. […] Samples were examined on an Imagestream X Mark II (Amnis, Merck) Imagestream images were assessed for internalisation compared with the 0 minute samples using on board software. […]
Cells were prepared as above except that no detergent was added prior to detecting the biotin with antibodies. Samples were analysed on a FACScalibur (Bekton-Dickinson) cytometer.
To assess ability to be internalized by cells at 37° C. […] Imagestream® takes a fluorescence image of each cell (FIG. 2C) enabling image analysis of the fluorescence on the surface versus the intracellular compartment. […] For flow cytometry we monitored the loss of surface expression as the peptides were internalized.

[1] = Biodistribution of 111In-DTPA labelled peptides in tumour-bearing mice; type: in vivo, female CD1 Nu/Nu mice; conditions: female, CD1 Nu/Nu, mouse, 0.3 MBq per animal, total radioactivity, 111In-DTPA peptide iv, mean ± SEM
Experimental: (§1) 2×10^6 cells in 100 μl were injected subcutaneously into the shoulders of female CD1 Nu/Nu mice. Tumours were grown subcutaneously on the left (A375Puro) and on the right (A375136) shoulder over two weeks. Once tumours had grown to approximately 5 mm diameter peptides were radiolabelled with Indium-111, and analysed by Radio-HPLC to determine labelling efficiency. The labelled peptides were diluted in sterile PBS/BSA and were dosed to give 0.3MBq per animal. Mice were then intravenously (tail-vein) injected with the radiolabelled peptide and are culled after 1 hour. Blood, organs and tumours were removed, weighed and residual activity was measured on a gamma counter (LKB Compugamma) the next day. Data were expressed as % Injected Dose/g tissue (% ID/g).
(§2) Immunocompromised mice (n=3-5) bearing A375Ppuro and A37546 tumours on opposite shoulders were given intravenous (iv) injections of […] of radiolabelled peptides 22-26 then killed 1 h later. Major organs and blood were collected immediately, weighed, and radioactivity determined. The data in Table 3 show the behaviour of the five DTPA-conjugated peptides tested; data are expressed as mean % injected dose/g tissue.

[2] = test system: A375Pβ6 (αvβ6) and A375Puro (control) xenografts; assay: as above; type: in vivo, female CD1 Nu/Nu mice; conditions: 111In-DTPA peptide iv, 1 h; mean ± SEM
Experimental: as §1, §2

CC(C)C[C@H](NC(=O)[C@H](CC(=O)O)NC(=O)CNC(=O)[C@H](CCCNC(=N)N)NC(=O)[C@H](CC(C)C)NC(=O)[C@H](CC(N)=O)NC(=O)[C@@H]1CCCN1C(=O)[C@@H](NC(=O)[C@H](CCCCNC(=O)CCCC[C@@H]1SC[C@@H]2NC(=O)N[C@@H]21)NC(=O)[C@H](CC(N)=O)NC(=O)CN(CCN(CCN(CC(=O)O)CC(=O)O)CC(=O)O)CC(=O)O)C(C)C)C(=O)N[C@@H](CCC(N)=O)C(=O)N[C@H](C(=O)N[C@@H](CC(C)C)C(=O)N[C@@H](C)C(=O)N[C@@H](CCC(N)=O)C(=O)N[C@@H](CCCCN)C(=O)N[C@H](C(=O)N[C@@H](C)C(=O)N[C@@H](CCCNC(=N)N)C(=O)N[C@H](C(N)=O)[C@@H](C)O)C(C)C)C(C)C [Peptide 24]
Relative Activity (A × B) (A375Pβ6 cells): 1.17 | tissue uptake at 1 h ([1]; heart, 1 h, read-out: Bio-distribution, Heart): 0.66 ± 0.02 %ID/g | tissue uptake at 1 h ([1]; intestines, 1 h, read-out: Bio-distribution, Intestines): 3.4 ± 0.29 %ID/g | tissue uptake at 1 h ([1]; kidney, 1 h, read-out: Bio-distribution, Kidney): 131 ± 12 %ID/g | tissue uptake at 1 h ([1]; liver, 1 h, read-out: Bio-distribution, Liver): 0.3 ± 0.05 %ID/g | tissue uptake at 1 h ([1]; lung, 1 h, read-out: Bio-distribution, Lung): 3.62 ± 0.3 %ID/g | tissue uptake at 1 h ([1]; muscle, 1 h, read-out: Bio-distribution, Muscle): 1.1 ± 0.05 %ID/g | tissue uptake at 1 h ([1]; pancreas, 1 h, read-out: Bio-distribution, Pancreas): 0.5 ± 0.03 %ID/g | tissue uptake at 1 h ([1]; spleen, 1 h, read-out: Bio-distribution, Spleen): 0.2 ± 0.01 %ID/g | tissue uptake at 1 h ([1]; stomach, 1 h, read-out: Bio-distribution, Stomach): 4.6 ± 0.63 %ID/g | tissue uptake at 1 h ([1]; tail, 1 h, read-out: Bio-distribution, Tail): 1 ± 0.19 %ID/g | tissue uptake at 1 h ([1]; tumour (A375Puro control xenograft), A375Puro xenograft, mice culled after 1 h, read-out: Bio-distribution, Tumour (Control)): 0.4 ± 0.04 %ID/g | tissue uptake at 1 h ([1]; tumour (A375Pβ6 xenograft, αvβ6-positive), A375Pβ6 xenograft, mice culled after 1 h, read-out: Bio-distribution, Tumour (αvβ6)): 3.8 ± 0.31 %ID/g | tissue uptake at 1 h ([1]; whole blood, 1 h, read-out: Bio-distribution, Blood): 0.3 ± 0.04 %ID/g | Bio-distribution, Kidney [2]: retention far greater than peptide 22
